Experimental data taken from ChEMBL document CHEMBL1275547, “KHM-1, a novel plasmid-mediated metallo-beta-lactamase from a Citrobacter freundii clinical isolate” (2008).

Test system: Escherichia coli
Test: Ratio of Kcat to Km for Escherichia coli JM109 harboring recombinant pKHM-1 Beta-lactamase KHM-1 assessed as compound hydrolysis by UV-visible spectrophotometry

CO/N=C(\C(=O)N[C@@H]1C(=O)N2C(C(=O)O)=C(COC(C)=O)CS[C@H]12)c1csc(N)n1 [CEFOTAXIME]
kcat/Km: 1.7 ×10⁸ /M/s
